# Assay results reported in patent publication US11142543B2 (priority 2016, dated 2021).
# Test system: C57 mice susceptible to social defeat by CD-1 aggressive mice
# Assay: Social defeated stress (SDS) model, Example 42
# Format: in vivo
smiles,measurement,setting,value
C[C@H]1CC[C@@]2(OC1)O[C@H]1C[C@H]3[C@@H]4CC[C@@H]5C[C@H](NC(=O)NC6CCCCC6)CC[C@]5(C)[C@H]4CC[C@]3(C)[C@H]1[C@@H]2C [compound C-11],mouse social time,"FIG. 5A, C-11 10 mg/kg gavage every day, fluoxetine 10 mg/kg intraperitoneally every day, 3 weeks",significantly increased the social time of the mice during the second week of administration
same,antidepressant activity compared with fluoxetine,social defeated stress model,superior antidepressant activity to fluoxetine
